From PMC11335280

Molecular target: FGF12b-GFP-myc (UniProt P61328)
Assay: proximity ligation; DuoLink in situ PLA with anti-GFP and anti-ATP1A1 antibodies in fixed (4% PFA), permeabilised (0.1% Triton X-100) U2OS-FGF12a-GFP-myc or U2OS-FGF12b-GFP-myc cells; PLA signal in cytoplasm per cell

Q: “A1 subunit of Na(+)/K(+) ATPase (ATP1A1) (from UniProt P05023 1-1023) (natural protein)” was tested. Which PLA spots, fewer than with FGF12a-GFP-myc did it give?
A: 50 % fewer
